Reference: ChEMBL document CHEMBL4041529, “Structure-Guided Design of EED Binders Allosterically Inhibiting the Epigenetic Polycomb Repressive Complex 2 (PRC2) Methyltransferase” (J Med Chem, 2017)

By UniProt entry, the sequences of proteins in these tests, tags left out.
UniProt O75530, whole entry: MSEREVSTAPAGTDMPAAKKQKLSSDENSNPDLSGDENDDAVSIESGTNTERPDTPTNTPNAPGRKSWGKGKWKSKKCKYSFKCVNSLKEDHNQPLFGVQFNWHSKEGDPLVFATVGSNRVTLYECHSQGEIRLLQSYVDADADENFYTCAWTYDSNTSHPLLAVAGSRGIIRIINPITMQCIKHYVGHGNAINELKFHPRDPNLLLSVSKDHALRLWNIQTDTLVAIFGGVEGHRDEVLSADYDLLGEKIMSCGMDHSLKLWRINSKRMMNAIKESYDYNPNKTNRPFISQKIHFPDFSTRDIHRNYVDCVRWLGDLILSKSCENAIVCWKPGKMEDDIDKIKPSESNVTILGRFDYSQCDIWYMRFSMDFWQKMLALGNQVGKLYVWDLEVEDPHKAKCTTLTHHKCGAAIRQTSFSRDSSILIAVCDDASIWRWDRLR

Molecular target: Polycomb protein EED (Homo sapiens, UniProt O75530)
Assay: Inhibition of human PRC2-EED (76 to 441 residues) expressed in Escherichia coli BL21 (DE3) using histone H3[21 to 44, K27MeO] as substrate and SAM as co-factor measured after 2 hrs by LC-MS/MS method

IC50: 146 µM
SMILES: COc1ccccc1CC1CCCNC1 (stereo unspecified)
